Some results are limits rather than exact numbers.

Chains of the proteins cited; added tags and fusions are not shown.
UniProt P08684, whole entry: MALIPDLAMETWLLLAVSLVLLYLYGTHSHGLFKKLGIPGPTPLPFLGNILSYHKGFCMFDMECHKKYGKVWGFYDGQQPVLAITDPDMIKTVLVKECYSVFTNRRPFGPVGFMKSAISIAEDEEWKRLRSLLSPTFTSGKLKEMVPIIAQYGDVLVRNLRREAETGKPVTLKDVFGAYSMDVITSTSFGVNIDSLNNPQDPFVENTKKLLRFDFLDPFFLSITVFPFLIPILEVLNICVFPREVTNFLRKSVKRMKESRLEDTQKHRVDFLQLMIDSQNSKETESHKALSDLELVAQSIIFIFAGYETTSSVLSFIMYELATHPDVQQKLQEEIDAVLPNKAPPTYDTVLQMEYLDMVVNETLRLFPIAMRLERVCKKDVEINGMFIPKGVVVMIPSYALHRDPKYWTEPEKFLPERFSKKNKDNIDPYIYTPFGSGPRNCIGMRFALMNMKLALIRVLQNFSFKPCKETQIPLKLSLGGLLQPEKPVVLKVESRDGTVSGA
UniProt P30518, whole entry: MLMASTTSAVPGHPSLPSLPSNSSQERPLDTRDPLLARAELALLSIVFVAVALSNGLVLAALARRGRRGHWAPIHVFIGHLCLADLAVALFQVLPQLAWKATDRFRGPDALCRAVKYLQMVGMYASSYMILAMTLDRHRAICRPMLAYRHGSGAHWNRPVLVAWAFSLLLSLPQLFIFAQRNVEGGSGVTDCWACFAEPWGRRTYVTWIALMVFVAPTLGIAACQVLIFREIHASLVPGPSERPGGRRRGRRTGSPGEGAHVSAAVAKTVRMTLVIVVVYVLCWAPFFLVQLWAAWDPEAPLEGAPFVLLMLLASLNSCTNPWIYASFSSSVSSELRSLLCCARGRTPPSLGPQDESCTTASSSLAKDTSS
UniProt P11712, whole entry: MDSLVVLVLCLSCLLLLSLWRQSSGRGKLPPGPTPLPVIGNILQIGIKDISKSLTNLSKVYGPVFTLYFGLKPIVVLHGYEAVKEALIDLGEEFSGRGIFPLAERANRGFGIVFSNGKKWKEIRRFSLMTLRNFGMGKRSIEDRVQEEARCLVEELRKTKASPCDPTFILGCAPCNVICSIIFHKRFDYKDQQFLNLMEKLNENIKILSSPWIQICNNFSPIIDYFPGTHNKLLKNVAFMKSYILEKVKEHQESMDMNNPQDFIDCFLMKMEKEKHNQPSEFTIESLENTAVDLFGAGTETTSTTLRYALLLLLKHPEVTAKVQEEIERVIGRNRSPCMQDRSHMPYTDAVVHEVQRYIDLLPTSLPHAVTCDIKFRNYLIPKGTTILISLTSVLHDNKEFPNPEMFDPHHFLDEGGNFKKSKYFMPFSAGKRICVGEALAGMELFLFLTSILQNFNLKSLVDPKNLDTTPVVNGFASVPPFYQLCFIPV

Data set [1] in a line: Rat PK test. The following applies: male Sprague-Dawley rat, caudal vein administration, 0.5 mg/kg.
Data set [2] deals with CYP3A4 (Homo sapiens, UniProt P08684). The data set is described as follows: Test of inhibition of cytochrome P450 (3A4) enzyme. To be noted: read-out: IC50 CYP3A4; human liver microsome, midazolam 2.5 μM as substrate, test compound 0.21 to 50 μM, 37° C. 10 minutes.
Data set [3] addresses human V2 receptor (Homo sapiens, UniProt P30518). The data set is described as follows: cAMP production test in V2 receptor expression cell. The format is cell-based. Here is the method: Pharmacological Test (1) Preparation of Human V2 Receptor Expression Cell
A DNA fragment containing a human V2 receptor code region was inserted into an expression vector of a vertebrate cell. The expression vector was genetically introduced into an animal cell to have the human V2 receptor express in the surface of the cell. Since the expression vector could express a neo gene which functions as a G418 resistance marker, it was cultured in a G418-containing medium, thereby selectively obtaining a human V2 receptor stable expression cell.
(2) cAMP Production Test in V2 Receptor Expression Cell
The human V2 receptor expression cell, which was prepared in the above described method, was recovered and resuspended into an incubation buffer (F-12 medium, 20 mM HEPES), and 5 μl of the cell was then divided into a 384-well plate with a density of 15,000 cells/well. 5 μl of a compound solution or an 8-AVP ((Arg^8)-vasopressin) solution, which was diluted with an assay buffer (F-12 medium, 20 mM HEPES, 1 mM IBMX), (total 10 μl/well) was added to each well (final concentration: 15,000 cells/well, 500 μM IBMX, 1% dimethyl sulfoxide). After incubation at room temperature for 30 minutes, a cAMP production amount was measured using a commercially available HTRF cAMP kit (Cisbio Inc.) according to the described protocol. Excel Fit was used in order to find EC50 and Emax values of the test compound. […]
For orientation: Cyclic AMP is a second messenger, typically raised through Gs and lowered through Gi signalling.

Data set [4] deals with CYP2C9 (Homo sapiens, UniProt P11712). The data set is described as follows: Test of inhibition of cytochrome P450 (2C9) enzyme. The following applies: read-out: IC50 CYP2C9; human liver microsome, sulfaphenazole 10 μM as substrate, test compound 0.21 to 50 μM, 37° C. 10 minutes. A general note: Liver microsomes are vesicles of endoplasmic reticulum, rich in cytochrome P450 enzymes.

Usually AUC stands for the area under the concentration-time curve, a measure of exposure. The term Vdss denotes the apparent volume that relates the amount in the body to the concentration in plasma or blood. Read a high Vdss as extensive tissue distribution. Usually IC50 stands for the concentration that inhibits the measured activity by half. By EC50 is commonly meant the midpoint of the concentration-response curve. Broadly, the Emax is the greatest response seen or fitted, relative to the assay's reference. Regarding `Cc1ccn(-c2ccc(C(=O)N3CCC(C)(C(=O)N[C@@H](C)CO)Cc4ccccc43)c(C)c2)n1` (stereo partly shown), the exposure (AUC) in data set [1] (plasma) is 0.36 µg·h/mL. In data set [1] (CLp multiplied by MRT), the volume of distribution (Vdss) stood at 1.22 L/kg. The CLp in data set [1] (administration amount divided by AUC0-∞) turned out to be 1.39 L/h/kg. The concentration for half-maximal inhibition (IC50) in data set [2] and in data set [4] was more than 50 µM in each case. Moreover, the EC50 in data set [3] (human V2 receptor expression cell, 30 minutes at room temperature, HTRF cAMP kit) came to 0.0028 µM. This compound also yielded an Emax in data set [3] (maximum reaction by 8-AVP assumed to be 100%) of 102%.

(Values after patent US9586905B2, “Benzoazepine derivative and medical use thereof” (SANWA KAGAKU KENKYUSHO CO., LTD., priority 2012, dated 2017).)
